# Values of other authors in Sander's compilation of Henry's law constants (doi:10.1016/0045-6535(88)90142-7).
# Experiment: Henry solubility constant Hcp at 298.15 K (mol/(m3 Pa))
# Conditions: reference: Ryan et al. (1988); cited value
compound,measurement,value
CCl [chloromethane],Henry solubility constant Hcp,2.5e-05
